Tested on: trastuzumab-resistant BT-474/trastuzumab xenografts
Test: Tumor xenograft growth inhibition
Format: in vivo, Balb/cA-nude mice
Settings: 5 mg/kg intravenously twice a week
Experimental: Female, 5–6-wk-old Balb/cA-nude mice were purchased from Shanghai Laboratory Animal Center, Chinese Academy of Sciences (Shanghai, China). […] Tumor volume was calculated as (length × width^2)/2.

trastuzumab: anti-HER2 antibody, purchased from Roche
tumor growth inhibition (TGI): 25%

Reference: publication PMC5746119, “Pharmacologic characterization of SHR8443, a novel dual inhibitor of phosphatidylinositol 3-kinase and mammalian target of rapamycin” (Oncotarget, 2017)
